In ChEMBL document CHEMBL1128444 (J Med Chem, 1995) one finds Ki and IC50 data, which are given here for 2 compounds.

Protein sequences, listed by entry. Tags and fused reporters are not part of them.
UniProt P31652, whole entry: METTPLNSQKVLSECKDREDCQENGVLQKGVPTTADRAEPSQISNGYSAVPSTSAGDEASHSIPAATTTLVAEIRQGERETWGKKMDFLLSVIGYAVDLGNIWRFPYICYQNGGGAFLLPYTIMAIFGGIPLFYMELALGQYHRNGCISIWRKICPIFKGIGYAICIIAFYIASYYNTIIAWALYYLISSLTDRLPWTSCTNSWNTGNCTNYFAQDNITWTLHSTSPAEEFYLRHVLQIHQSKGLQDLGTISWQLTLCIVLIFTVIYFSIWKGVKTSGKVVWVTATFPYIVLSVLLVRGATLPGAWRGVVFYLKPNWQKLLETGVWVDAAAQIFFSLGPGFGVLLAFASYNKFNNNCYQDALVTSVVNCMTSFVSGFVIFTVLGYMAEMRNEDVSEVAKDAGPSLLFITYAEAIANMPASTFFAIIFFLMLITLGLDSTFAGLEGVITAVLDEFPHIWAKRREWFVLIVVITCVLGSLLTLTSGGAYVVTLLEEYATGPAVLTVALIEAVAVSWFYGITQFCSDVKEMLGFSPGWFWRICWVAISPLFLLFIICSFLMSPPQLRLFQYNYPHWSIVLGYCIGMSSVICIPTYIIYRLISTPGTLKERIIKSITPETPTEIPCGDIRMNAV

Broadly, the Ki is the equilibrium dissociation constant of an inhibitor or competing ligand from its target. The term IC50 denotes the midpoint of a concentration-inhibition curve.

The target in assay [1] is T1, Sodium-dependent serotonin transporter (Rattus norvegicus, UniProt P31652). The experiment in a line: Ratio of Ki value towards Serotonin transporter to that of dopamine transporter. In short, it runs like this: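 Rat [3H]uptake into crude synaptosomes in modified Krebs phosphate buffer, pH 7.4, with dextrose, ascorbic acid and 10 μM pargyline, 3 min at 30 °C, filtered and scintillation counted. DA: male Sprague–Dawley striatum, 0.5 nM [3H]dopamine, 1 μM mazindol nonspecific. 5-HT: midbrain, 5 nM [3H]serotonin, 1 μM citalopram nonspecific. Ki by Cheng–Prusoff; 5-HT Ki/DA Ki; 3–4 experiments in triplicate.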

In assay [2] the target is T1, Sodium-dependent serotonin transporter. Put plainly: Ratio of IC50 value against Serotonin transporter to that of dopamine transporter.

With `COC(=O)[C@H]1[C@@H](OC(=O)c2ccccc2)C[C@@H]2CC[C@H]1N2C` [COCAINE], the Ki in assay [1] amounted to 0.112 µM.
For the compound `COC(=O)[C@@H]1C2CC[C@H](C[C@@H]1c1ccccc1)N2C`, the IC50 in assay [2] worked out at 1.96 µM. In assay [1], the Ki was 0.173 µM.
